Measurements reported in patent US6649417B2, “Tissue-based standoff biosensors for detecting chemical warfare agents” (dated 2003).

Test system: Nostoc sensor

`CCCCN(CCCC)CCCC` was tested, and the “correlation between concentration and change in yield (dose-response curves)” value (7.4, 248, and 642 mg/L TBA, FIG. 2) was “good correlation” and the “Fs (minimal fluorescence signal) change on exposure” value (agent vapor in air stream, 200 ml/min, relative humidity 85%, curves every 5 min) was “increased”.
